The target in assay [1] is T1, ATP-dependent Clp protease proteolytic subunit, mitochondrial (Homo sapiens, UniProt Q16740). The assay is described as follows: Activation of human ClpP using FITC-casein as substrate assessed as increase in proteolytic activity at 100 uM preincubated for 15 mins followed by substrate addition and measured after 60 mins by fluorescence based analysis relative to ONC201. The following applies: filed as activator, time 75.0 min.

Amino acid sequences for entries named in this document (tags omitted).
UniProt Q16740, whole entry: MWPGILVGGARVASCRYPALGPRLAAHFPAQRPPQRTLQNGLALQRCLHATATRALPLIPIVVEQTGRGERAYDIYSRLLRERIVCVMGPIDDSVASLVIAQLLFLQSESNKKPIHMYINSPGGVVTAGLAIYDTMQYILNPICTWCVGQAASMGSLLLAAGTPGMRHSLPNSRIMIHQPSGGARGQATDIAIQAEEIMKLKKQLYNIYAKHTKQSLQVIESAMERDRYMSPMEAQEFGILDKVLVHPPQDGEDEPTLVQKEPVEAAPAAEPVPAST

The target in assay [2] is T1, ATP-dependent Clp protease proteolytic subunit, mitochondrial. As to the kind of experiment: Activation of human ClpP in human SU-DIPG-XXXVI cells assessed as decrease in mitochondrial DNA complex IV subunit COI level by Western blot analysis. The class given is cell-based. As to conditions: filed as activator. On the technique in general: A western blot detects proteins with antibodies after separation by electrophoresis.

Assay [3] shares this target. As to the kind of experiment: Activation of human ClpP in human SU-DIPG-XXXVI cells assessed as decrease in NRF1 level incubated for 24 hrs by Western blot analysis. It is filed as cell-based. The following applies: filed as activator.
Assay [4] has the same target. As to the kind of experiment: Activation of human ClpP in human SU-DIPG-XXXVI cells assessed as induction of ClpX displacement from peptidase component by measuring decrease in ClpX protein level by Western blot analysis. The following applies: filed as activator. The class given is cell-based.
Assay [5] shares this target. As to the kind of experiment: Activation of human ClpP in human SU-DIPG-XXXVI cells assessed as decrease in TFAM level incubated for 24 hrs by Western blot analysis. It is filed as cell-based. The following applies: filed as activator.
Assay [6] shares this target. The assay is described as follows: Activation of human ClpP in human SU-DIPG-XXXVI cells assessed as decrease in mitochondrial respiratory chain complex II subunit SDHA level by Western blot analysis. The following applies: filed as activator. It is filed as cell-based.
For assay [7] the target is unchanged. As to the kind of experiment: Activation of human ClpP in human SU-DIPG-XXXVI cells assessed as decrease in mitochondrial respiratory chain complex V subunit ATP5A level by Western blot analysis. The class given is cell-based. The following applies: filed as activator.

Molecules are shown by their SMILES. The source made the active and inactive calls. No cut-off for these calls is given here.

In the case of `N#Cc1cccc(CN2CCc3[nH]c(=O)n(Cc4ccc(SC(F)(F)F)cc4)c(=O)c3C2)c1`, the Activity in assay [1] stood at 76%.
The same measure, in the same setting: then `COc1cccc(CN2CCc3[nH]c(=O)n(Cc4ccc(C(F)(F)F)cc4)c(=O)c3C2)c1`, with 71%.
Same read-out and setting: then `N#Cc1cccc(CN2CCc3[nH]c(=O)n(Cc4ccc(C(F)(F)F)cc4)c(=O)c3C2)c1`, with 100%; and `O=c1[nH]c2c(c(=O)n1Cc1ccc(C(F)(F)F)cc1)CN(Cc1cccc(C(F)(F)F)c1)CC2`, with 96%; and `N#Cc1cccc(CN2CCc3[nH]c(=O)n(Cc4cc(C(F)(F)F)cc(C(F)(F)F)c4)c(=O)c3C2)c1`, with 44%.
Consider `Cc1ccc(Cn2c(=O)[nH]c3c(c2=O)CN(Cc2cccc(C#N)c2)CC3)cc1`, for which the Activity in assay [1] was found to be 71%.
For `N#Cc1cccc(CN2CCc3[nH]c(=O)n(Cc4cc(C(F)(F)F)ccc4Cl)c(=O)c3C2)c1`, the Activity in assay [1] is 93%.
As to `N#Cc1cccc(CN2CCc3[nH]c(=O)n(Cc4ccc(Cl)c(Cl)c4)c(=O)c3C2)c1`, the outcome in assay [2], in assay [4], in assay [6] and in assay [7] was Active. Moreover, the Activity entry in assay [3] is “Active; Significant Effect Observed”; in assay [5], “Active; Marked Reduction Observed”; in assay [1] it was 97%.
Regarding `COc1ccc(Cn2c(=O)[nH]c3c(c2=O)CN(Cc2cccc(C#N)c2)CC3)c(OC)c1`, the Activity in assay [1] was 76%.
Turning to `O=c1[nH]c2c(c(=O)n1Cc1ccc(C(F)(F)F)cc1)CN(Cc1cccc([N+](=O)[O-])c1)CC2`, in assay [1], the Activity is 84%.
`O=c1[nH]c2c(c(=O)n1Cc1ccc(C(F)(F)F)cc1)CN(Cc1cccc(Cl)c1)CC2`: the Activity in assay [1] stood at 100%.
Same read-out and setting: then `N#Cc1cccc(CN2CCc3[nH]c(=O)n(Cc4ccc([N+](=O)[O-])cc4)c(=O)c3C2)c1`, with 87%; and `N#Cc1cccc(CN2CCc3[nH]c(=O)n(Cc4ccc(Cl)cc4)c(=O)c3C2)c1`, with 90%.
